# From PubChem BioAssay AID720702 (The Scripps Research Institute Molecular Screening Center, 2013)
# Sequences of proteins named here, by UniProt entry; tags and fusion partners are left off.
# UniProt O95551, whole entry: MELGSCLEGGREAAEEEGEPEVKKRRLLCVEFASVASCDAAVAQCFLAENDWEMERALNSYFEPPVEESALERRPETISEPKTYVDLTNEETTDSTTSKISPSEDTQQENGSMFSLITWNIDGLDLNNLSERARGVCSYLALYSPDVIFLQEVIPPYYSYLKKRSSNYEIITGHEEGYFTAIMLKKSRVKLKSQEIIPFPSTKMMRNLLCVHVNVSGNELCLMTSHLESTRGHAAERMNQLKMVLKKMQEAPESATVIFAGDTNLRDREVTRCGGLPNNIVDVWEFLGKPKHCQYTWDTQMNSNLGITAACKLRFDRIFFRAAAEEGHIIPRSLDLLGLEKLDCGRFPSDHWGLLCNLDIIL
# This is a selection; strong and weak results do not stand in their true shares. Active and inactive are the calls of the source.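 Rule for the calls: active = inhibition above the mean of all tested compounds plus 3 SD, set per campaign (cut at about 25% in these data); inactive = the rest.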
# Biological target: Tyrosyl-DNA phosphodiesterase 2 (Homo sapiens) (UniProt O95551)
# Assay: human TDP2 enzyme inhibitors, primary screen, biochemical, epi absorbance, recombinant enzyme (AID 720702);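 note: 0% = DMSO with enzyme and 100% = buffer with substrate but no TDP2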
# Conditions: recombinant TDP2, T5PNP hydrolysis, p-nitrophenol absorbance 415 nm; at 12.8 µM; hits give high values
# Summary of the method: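 test system = human TDP2 enzyme | input = TDP2 enzyme at 120 nM final | medium = 50 mM Tris-HCl pH 7.5 with Mg2+, KCl, DTT, BSA | also added = T5PNP substrate, 5 mM | times = 2 h at 37 °C | technique = epi absorbance | benchmarks = high control without enzyme, low control DMSO plus TDP2 | replication = each compound tested once, singlicate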
row,Compound,inhibition
1,O=c1[nH]c2ccccc2n1C1CCN(C(c2ccccc2OC(F)(F)F)c2nnnn2C2CCCCC2)CC1 (stereo unspecified),inactive: -11%
2,O=C(NCC1(N2CCCCC2)CCCCC1)c1ccc(Cl)nc1,inactive: -8.94%
3,Cc1cc(C)cc(N(C(=O)c2ccccc2)C2CCN(C(=O)OC(C)(C)C)CC2)c1,inactive: -18.3%
4,O=C(NCC1(N2CCOCC2)CCCCC1)c1cc2ccccc2o1,inactive: 4.22%
5,O=c1[nH]c2ccccc2n1C1CCN(C(c2cc3ccccc3o2)c2nnnn2C2CCCCC2)CC1 (stereo unspecified),inactive: 7.62%
6,O=C(OC1CN2CCC1CC2)C1c2ccccc2Oc2ccccc21 (stereo unspecified),inactive: 4.23%
7,O=C(NCC1(N2CCCCC2)CCCCC1)c1ccc(Cl)s1,inactive: 1.98%
8,N#CC1(Nc2ccccc2)CCN(Cc2ccccc2)CC1,inactive: 9.83%
9,COc1ccc(Cl)cc1C(=O)NCC1(N2CCOCC2)CCCCC1,inactive: 0.76%
10,CCOC(=O)N1CCC(Nc2ccc(OC)cc2)CC1,inactive: 1.44%
11,CCCCn1nnnc1C(c1ccc(OC)cc1)N1CCC(n2c(=O)[nH]c3ccccc32)CC1 (stereo unspecified),inactive: -1.21%
12,COc1ccc(C(=O)NCC2(N3CCCCC3)CCCCC2)cc1,inactive: 6.75%
13,CCC(c1nnnn1C1CCCC1)N1CCC(n2c(=O)[nH]c3ccccc32)CC1 (stereo unspecified),inactive: 9.69%
14,COc1ccc(C(=O)NCC2(N3CCCCC3)CCCCC2)c(OC)c1OC,inactive: 2.24%
15,CC(C)(C)OC(=O)N1CCC(N(C(=O)c2ccccc2)c2ccc(F)cc2)CC1,inactive: -1.4%
16,O=C(NCC1(N2CCCCC2)CCCCC1)c1ccc(=O)[nH]c1,inactive: -5.32%
17,CCCCn1nnnc1C(c1cccs1)N1CCC(n2c(=O)[nH]c3ccccc32)CC1 (stereo unspecified),inactive: 2.99%
18,CCCCn1nnnc1C(CC)N1CCC(n2c(=O)[nH]c3ccccc32)CC1 (stereo unspecified),inactive: 8.01%
19,O=C(NCC1(N2CCCCC2)CCCCC1)c1cccs1,inactive: 12.7%
20,CSc1ccccc1C(=O)NCC1(N2CCCCC2)CCCCC1,inactive: 8.13%
21,Cc1cccc(NC2(C#N)CCN(Cc3ccccc3)CC2)c1,inactive: -16.3%

row,Compound,inhibition
1,O=c1[nH]c2ccccc2n1C1CCN(C(c2ccccc2)c2nnnn2C2CCCCC2)CC1 (stereo unspecified),inactive: -8.02%
2,COc1cc(C(=O)NCC2(N(C)C)CCCCC2)ccc1OC(F)F,inactive: -13.6%
3,CCOC(=O)N1CCC(Nc2cccc(C)c2)CC1,inactive: -5.7%
4,O=c1[nH]c2ccccc2n1C1CCN(C(c2cccc3ccccc23)c2nnnn2C2CCCC2)CC1 (stereo unspecified),inactive: 7%
5,CC(C)(C)n1nnnc1C(c1ccccc1)N1CCC(n2c(=O)[nH]c3ccccc32)CC1 (stereo unspecified),inactive: -3.54%
6,O=C1CCN(Cc2ccccc2)CC1,inactive: 3.62%
7,CCOc1ccc(C)cc1CN(CCCl)CCCl,inactive: -6.3%
8,O=C(NCC1(N2CCCCC2)CCCCC1)c1ccc(F)cc1,inactive: 7.59%
9,CCCCOc1ccc(C(=O)NCC2(N3CCOCC3)CCCCC2)cc1,inactive: 14.2%
10,CCCCn1nnnc1C(c1cc2ccccc2o1)N1CCC(n2c(=O)[nH]c3ccccc32)CC1 (stereo unspecified),inactive: -0.49%
11,O=P1(N(CCCl)CCCl)SCCCS1,inactive: -9.88%
12,CCOC(=O)N1CCC(Nc2ccc(F)cc2)CC1,inactive: -21.4%
13,COc1ccc(NC2CCN(CCc3ccccc3)CC2)c(OC)c1,inactive: 2.22%
14,O=C(NCC1(N2CCCCC2)CCCCC1)c1cccc(C(F)(F)F)c1,inactive: -6.32%
15,O=C(NCC1(N2CCOCC2)CCCCC1)c1cc(=O)[nH]c2ccccc12,inactive: -0.75%
16,COc1cc(C(=O)NCC2(N3CCCCC3)CCCCC2)ccc1OC(F)F,inactive: 10.5%
17,CCCCn1nnnc1C(c1cccc2ccccc12)N1CCC(n2c(=O)[nH]c3ccccc32)CC1 (stereo unspecified),inactive: 2.87%
18,COc1ccc(NC2CCN(C(=O)OC(C)(C)C)CC2)cc1,inactive: -22%
19,CC(C)c1ccc(C(=O)NCC2(N3CCOCC3)CCCCC2)cc1,inactive: -8.96%
20,CN1CCN(CCOC(=O)C(O)(c2ccccc2)c2ccccc2)CC1,inactive: -0.56%
21,CC(C)(C)n1nnnc1C(c1ccccc1OC(F)(F)F)N1CCC(n2c(=O)[nH]c3ccccc32)CC1 (stereo unspecified),inactive: 6.43%

row,Compound,inhibition
1,O=C(NCC1(N2CCCCC2)CCCCC1)c1ccc(OC(F)F)cc1,inactive: -16.1%
2,CCN1CCC(Nc2ccc(Cl)cc2)CC1,inactive: -6.35%
3,N#CC1(Nc2ccccc2)CCN(CCc2ccccc2)CC1,inactive: 10.5%
4,O=c1[nH]c2ccccc2n1C1CCN(C(c2ccccc2OC(F)(F)F)c2nnnn2C2CCCC2)CC1 (stereo unspecified),inactive: -2.02%
5,O=C(NCC1(N2CCCCC2)CCCCC1)c1cccc([N+](=O)[O-])c1,inactive: -4.94%
6,CSc1ccc(C(=O)NCC2(N3CCOCC3)CCCCC2)cc1,inactive: -22.7%
7,O=C(NCC1(N2CCCCC2)CCCCC1)c1cncc(Br)c1,inactive: -3.14%
8,CN1CCC(Nc2cccc(F)c2)CC1,inactive: 18.4%
9,COc1ccc(C(c2nnnn2C2CCCC2)N2CCC(n3c(=O)[nH]c4ccccc43)CC2)cc1 (stereo unspecified),inactive: -7.24%
10,Cc1ccc(C(=O)NCC2(N(C)C)CCCCC2)o1,inactive: -7.39%
11,CCCOc1ccc(C(=O)NCC2(N(C)C)CCCCC2)cc1OC,inactive: -6.9%
12,CC(C)c1ccc(NC2CCN(C(=O)OC(C)(C)C)CC2)cc1,inactive: -1.65%
13,COC(=O)C1(Nc2ccccc2)CCN(Cc2ccccc2)CC1,inactive: 4.85%
14,COc1ccc(CN(CCCl)CCCl)cc1Cl,inactive: -2.08%
15,CN(C)c1cccc(C(=O)NCC2(N3CCCCC3)CCCCC2)c1,inactive: -1.45%
16,COc1cc(OC)c(C(=O)NCC2(N(C)C)CCCCC2)cc1OC,inactive: -9.58%
17,O=C(NCC1(N2CCOCC2)CCCCC1)c1cc(F)c(F)cc1Cl,inactive: 0.25%
18,CCC(c1nnnn1C(C)(C)C)N1CCC(n2c(=O)[nH]c3ccccc32)CC1 (stereo unspecified),inactive: 10.9%
19,CCCCn1nnnc1C(c1ccnc2ccccc12)N1CCC(n2c(=O)[nH]c3ccccc32)CC1 (stereo unspecified),inactive: 3.1%
